# Literature values as cited in patent US6855735B2, “Ketamine treatment of restless legs syndrome” (Temple University of the Commonwealth System of Higher …, priority 2002, dated 2005).
# Details: metabolite of ketamine; cited from earlier work
substance,measurement,value
6-dihydro-norketamine,renal excretion,90%
